Tested on: Cytosolic phospholipase A2 (Bos taurus)
Test: Inhibitory activity against cPLA2 (cytosolic Phospholipase A2) by measuring the calcium ionophore A-23,187-induced arachidonic acid release from bovine platelets at a compound conc of 33 uM

inhibition: > 28%
SMILES: CCCCCCCCCCCCCCCCCC(=O)c1c(CC(=O)O)n(C)c2ccccc12
